# Measurements reported in patent US10363320B2, “Conjugate comprising oxyntomodulin and an immunoglobulin fragment, and use thereof” (HANMI SCIENCE CO., LTD, priority 2011, dated 2019).
# Amino acid sequences for entries named in this document (tags omitted). Residues count along the entry.
# UniProt P47871, 26-477: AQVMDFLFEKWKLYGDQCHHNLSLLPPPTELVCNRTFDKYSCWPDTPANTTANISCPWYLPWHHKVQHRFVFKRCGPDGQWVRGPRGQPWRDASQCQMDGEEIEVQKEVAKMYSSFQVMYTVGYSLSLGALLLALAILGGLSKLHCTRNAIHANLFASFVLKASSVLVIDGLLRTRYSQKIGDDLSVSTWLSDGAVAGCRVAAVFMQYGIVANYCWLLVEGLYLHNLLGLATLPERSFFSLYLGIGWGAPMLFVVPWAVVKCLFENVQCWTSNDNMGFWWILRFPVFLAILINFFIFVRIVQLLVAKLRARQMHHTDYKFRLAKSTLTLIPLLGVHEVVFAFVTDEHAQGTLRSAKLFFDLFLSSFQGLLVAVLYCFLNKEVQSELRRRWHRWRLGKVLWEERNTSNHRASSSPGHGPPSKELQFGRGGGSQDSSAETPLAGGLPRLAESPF
# UniProt P43220, 24-463: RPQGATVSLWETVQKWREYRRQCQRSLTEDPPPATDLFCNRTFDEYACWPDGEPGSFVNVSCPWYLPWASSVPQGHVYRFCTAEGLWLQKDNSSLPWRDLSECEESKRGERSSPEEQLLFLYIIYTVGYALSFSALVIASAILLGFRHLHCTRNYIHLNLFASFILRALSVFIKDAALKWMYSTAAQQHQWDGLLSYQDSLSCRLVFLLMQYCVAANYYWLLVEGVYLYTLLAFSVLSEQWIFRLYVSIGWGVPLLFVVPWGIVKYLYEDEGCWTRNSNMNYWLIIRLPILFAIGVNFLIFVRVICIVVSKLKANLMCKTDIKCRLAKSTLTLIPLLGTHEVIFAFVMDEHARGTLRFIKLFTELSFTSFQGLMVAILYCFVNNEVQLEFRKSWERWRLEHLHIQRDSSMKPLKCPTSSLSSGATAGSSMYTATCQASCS
# pEC50: −log10 of the molar value.
# Columns and labels:
# human glucagon receptor = molecular target: T1, human glucagon receptor (Homo sapiens, UniProt P47871); assay: cAMP response in CHO cell line expressing human glucagon receptor (CHO/GCGR); assay type: cell-based
# T1 construct: host or cells: CHO DG44
# Procedure: The PCR product was cloned into the known animal cell expression vector x0GC/dhfr to prepare a recombinant vector x0GC/GCGR.
# CHO DG44 cell line cultured in DMEM/F12 (10% FBS) medium was transfected with the recombinant vector x0GC/GCGR using LIPOFECTAMINE®, and cultured in a selection medium containing 1 mg/mL G418 and 10 nM methotraxate.
# (§1) The cultured cells were washed with KRB buffer and suspended in 40 ml of KRB buffer containing 1 mM IBMX, and left at room temperature for 5 minutes. […] Then, 20 mL of cell lysis buffer was added for cell lysis, and the cell lysates were applied to a cAMP assay kit (Molecular Device, USA) to measure cAMP concentrations. EC50 values were calculated therefrom, and compared to each other.
# (§2) Each of the cultured transformants was washed with KRB buffer and suspended in 40 ml of KRB buffer containing 1 mM IBMX, and left at room temperature for 5 minutes. […] Then, 20 ml of cell lysis buffer was added for cell lysis, and the cell lysates were applied to a cAMP assay kit (Molecular Device, USA) to measure cAMP concentrations using a Victor (PERKIN ELMER®, USA). EC50 values were calculated therefrom, and compared to each other (Table 3).
# human GLP-1 receptor = molecular target: T2, human GLP-1 receptor (Homo sapiens, UniProt P43220); assay: cAMP response in CHO cell line expressing human GLP-1 receptor (CHO/GLP-1R); assay type: cell-based
# T2 construct: host or cells: CHO DG44
# Procedure: The PCR product was cloned into the known animal cell expression vector x0GC/dhfr to prepare a recombinant vector x0GC/GLP1R.
# CHO DG44 cell line cultured in DMEM/F12 (10% FBS) medium was transfected with the recombinant vector x0GC/GLP1R using LIPOFECTAMINE® (INVITROGEN®, USA), and cultured in a selection medium containing 1 mg/mL G418 and 10 nM methotraxate.
# as §1, §2
# [1] = Changes in food intake in ob/ob mouse; assay type: in vivo; conditions: ob/ob mice fasted for 16 hours; 1 mg/kg; food intake for 2 hours (FIG. 1)
# Procedure: In order to measure in vivo therapeutic activity of oxyntomodulin derivatives, changes in food intake by administration of oxyntomodulin derivatives were examined in ob/ob mouse using native oxyntomodulin as a control.
# Specifically, obese diabetic ob/ob mice, commonly used to test the efficacies of therapeutic agents for obesity and diabetes, were fasted for 16 hours, and administered with 1 or 10 mg/kg of oxyntomodulin, or 0.02, 0.1, 1 or 10 mg/kg of the oxyntomodulin derivative of SEQ ID NO. 2. Then, food intake was examined for 2 hours (FIG. 1). FIG. 1 is a graph showing changes in food intake according to administration dose of oxyntomodulin or oxyntomodulin derivative.
SMILES,pEC50 (human glucagon receptor),pEC50 (human GLP-1 receptor),inhibitory effects on food intake [1]
CSCC[C@H](NC(=O)[C@H](CC(C)C)NC(=O)[C@H](Cc1c[nH]c2ccccc12)NC(=O)[C@H](CCC(N)=O)NC(=O)[C@@H](NC(=O)[C@H](Cc1ccccc1)NC(=O)[C@H](CCC(=O)O)NC(=O)[C@@H]1CCCCNC(=O)CC[C@H](NC(=O)[C@H](CC(=O)O)NC(=O)[C@H](CC(C)C)NC(=O)[C@H](Cc2ccc(O)cc2)NC(=O)[C@H](CCCCN)NC(=O)[C@H](CO)NC(=O)[C@H](Cc2ccc(O)cc2)NC(=O)[C@H](CC(=O)O)NC(=O)[C@H](CO)NC(=O)[C@@H](NC(=O)[C@H](Cc2ccccc2)NC(=O)[C@@H](NC(=O)CNC(=O)[C@H](CCC(N)=O)NC(=O)C(C)(C)NC(=O)Cc2c[nH]cn2)[C@@H](C)O)[C@@H](C)O)C(=O)N[C@@H](CCCCN)C(=O)N[C@@H](CCCNC(=N)N)C(=O)N[C@@H](C)C(=O)N1)C(C)C)C(=O)N[C@@H](CC(N)=O)C(=O)N[C@H](C(=O)N[C@@H](CS)C(=O)O)[C@@H](C)O [SEQ ID NO. 32],7.76,7.85,–
CC[C@H](C)[C@H](NC(=O)[C@H](CC(N)=O)NC(=O)[C@H](CC(N)=O)NC(=O)[C@H](CCCNC(=N)N)NC(=O)[C@H](CC(N)=O)NC(=O)[C@H](CCCNC(=N)N)NC(=O)[C@H](CCCCN)NC(=O)[C@@H](NC(=O)[C@H](CC(N)=O)NC(=O)[C@H](CCSC)NC(=O)[C@H](CC(C)C)NC(=O)[C@H](Cc1c[nH]c2ccccc12)NC(=O)[C@H](CCC(=O)O)NC(=O)[C@@H](NC(=O)[C@H](Cc1ccccc1)NC(=O)[C@H](CC(C)C)NC(=O)[C@H](CCCNC(=N)N)NC(=O)[C@@H](NC(=O)[C@H](C)NC(=O)[C@H](CCC(=O)O)NC(=O)[C@H](CCC(=O)O)NC(=O)[C@H](CC(=O)O)NC(=O)[C@H](CC(C)C)NC(=O)[C@H](Cc1ccc(O)cc1)NC(=O)[C@H](CCCCN)NC(=O)[C@H](CO)NC(=O)[C@H](Cc1ccc(O)cc1)NC(=O)[C@H](CC(=O)O)NC(=O)[C@H](CO)NC(=O)[C@@H](NC(=O)[C@H](Cc1ccccc1)NC(=O)[C@@H](NC(=O)CNC(=O)[C@H](CCC(N)=O)NC(=O)[C@H](CO)NC(=O)Cc1c[nH]cn1)[C@@H](C)O)[C@@H](C)O)C(C)C)[C@@H](C)CC)[C@@H](C)O)C(=O)N[C@@H](C)C(=O)O [SEQ ID NO. 2],–,–,more excellent inhibitory effects on food intake than administration of 10 mg/kg of oxyntomodulin
